The values below come from ChEMBL document CHEMBL5331141.

Structures are written as SMILES. Activity calls are given as the source filed them. The rule behind the calls is not given here.

This assay concerns HEK293. The assay is described as follows: Effect on HEK293 cells lacking human mu opioid receptor assessed as inhibition of cAMP accumulation at 1 uM. Type of assay: functional, cell-based.
As for `C=C(I)[C@@H]1CC[C@@]2(C)C[C@@H]1c1c(O)cc(CCCCC)cc1O2`, the result was inactive. Under `C=C(C)[C@H]1CC[C@]2(C)C[C@H]1c1c(O)cc(CCCCC)cc1O2` stands “inactive”; under `C=C(I)[C@H]1CC[C@]2(C)C[C@H]1c1c(O)cc(CCCCC)cc1O2`, “inactive”. Consider `C=C(COC(C)=O)[C@@H]1CCC(C)=C[C@H]1c1c(O)cc(CCCCC)cc1O`, for which the outcome was inactive. Under `C=Cc1cc(O)c([C@@H]2C=C(C)CC[C@H]2C(=C)C)c(O)c1` stands “inactive”; under `C=CCc1cc(O)c([C@@H]2C=C(C)CC[C@H]2C(=C)C)c(O)c1`, “inactive”. As for `C=C(C)[C@@H]1CCC(C)=C[C@H]1c1c(OC)cc(CCCCC)cc1OC`, the result was inactive. Under `CCCCCc1cc(O)c([C@@H]2C[C@@H](CO)CC[C@H]2C(C)C)c(O)c1` stands “inactive”.

`C=C(CO)[C@@H]1CCC(C)=C[C@H]1c1c(OC(C)=O)cc(CCCCC)cc1OC(C)=O`: the outcome was inactive. Under `C=C(C)[C@@H]1CCC(C)=C[C@H]1c1c(O)cc(CCCC)cc1O` stands “inactive”.

For the molecule `CCCCCc1cc(O)c([C@@H]2C=C(C)CC[C@H]2C(C)C)c(O)c1`, the result was inactive.

Turning to `C=C(C)[C@@H]1CCC(C)=C[C@H]1c1c(O)cc(CC(C)C)cc1O`, the result was inactive. Under `CCCCCc1cc(O)c([C@@H]2C[C@@H](C)CC[C@H]2C(C)C)c(O)c1` stands “inactive”; under `C=C(C)[C@@H]1CCC(C)=C[C@H]1c1c(O)cc(CC)cc1O`, “inactive”.
